Data as given in patent US20190113512A1 (MIT, published 2019).

Key:
[1] = target: T1, human interleukin-6 (IL-6) (human, UniProt P05231 30-212); test: yeast-surface display flow cytometry, 0.1% BSA/PBS
T1 construct: also called Human IL-6

[2] = target: streptavidin Alexa Fluor 647 (UniProt P22629 37-163)

B1: rcSso7d.IL6.1 (designed binder)
chain: MATVKFTYQGEEKQVDISKIKIVGRHGQWIYFWYDEGGGANGNGWVSEKDAPKELLQMLEKQ
- binding result [1]: binds

B2: rcSso7d.IL6.7 (designed binder)
chain: MATVKFTYQGEEKQVDISKIKWVRRWGQWIYFNYDEGGGAWGWGDVSEKDAPKELLQMLEKQ
- binding result [1]: binds

B3: rcSso7d.IL6.6 (designed binder)
chain: MATVKFTYQGEEKQVDISKIKWVRRDGQIIYFNYDEGGGAWGWGDVSEKDAPKELLQMLEKQ
- binding result [1]: binds

B4: rcSso7d.IL6.2 (designed binder)
chain: MATVKFTYQGEEKQVDISKIKIVGRHGQWIYFWYDEGGGADGNGWVSEKDAPKELLQMLEKQ
- binding result [1]: binds

B5: rcSso7d.IL6.3 (designed binder)
chain: MATVKFTYQGEEKQVDISKIKIVGRHGQWIYFWYDEGGGAYGNGWVSEKDAPKELLQMLEKQ
- binding result [1]: binds

B6: rcSso7d.IL6.5 (designed binder)
chain: MATVKFTYQGEEKQVDISKIKIVGRWGQWIYFWYDEGGGASGNGWVSEKDAPKELLQMLEKQ
- binding result [1]: binds

B7: rcSso7d.IL6.4 (designed binder)
chain: MATVKFTYQGEEKQVDISKIKIVGRSGQWIYFWYDEGGGAWGNGWVSEKDAPKELLQMLEKQ
- binding result [1]: binds

B8: rcSso7d.SA-CBD (designed binder)
chain: MGSSHHHHHHSSGLVPRGSHMATVKFTYQGEEKQVDISKIKIVARDGQYIDFKYDEGGGAYGYGWVSEKDAPKELLQMLEKQGGGGSGGGGSGGGGSPVSGNLKVEFYNSNPSDTTNSINPQFKVTNTGSSAIDLSKLTLRYYYTVDGQKDQTFWCDHAAIIGSNGSYNGITSNVKGTFVKMSSSTNNADTYLEISFTGGTLEPGAHVQIQGRFAKNDWSNYTQSNDYSFKSASQFVEWDQVTAYLNGVLVWG
- EC50 (read off the curve) [2]: ~3000 nM
